From patent US20140271765A1 (priority 2013, published 2014)

Legend:
[1] = Plasma profile in subjects with 4 implants without rescue medication (Example 4); settings: no supplemental buprenorphine
[2] = system: rats; settings: cited from earlier work
[3] = dogs with 5 implants
[4] = system: rat; settings: cited from earlier work

norbuprenorphine
time until plasma concentration reaches a plateau [1]: about a few days to about two weeks | analgesic effect as % of the analgesic effect achieved by buprenorphine [2]: 2% | Norbuprenorphine plasma concentrations [3]: generally below the limit of quantitation | respiratory-depressant activity, times more potent than buprenorphine [4]: approximately 10 times

Only a part of the results on these compounds is given; other tests are left out.
